## Measured affinities in a library of Ab-14 light chain variants

Binding partner: SARS-CoV-2 spike HR2 peptide, sequence PDVDLGDISGINAS.

Parent: Ab-14, a human scFv built as VH, a (GGGGS)3 linker, VL. Only the CDRs of the light chain vary.
VH: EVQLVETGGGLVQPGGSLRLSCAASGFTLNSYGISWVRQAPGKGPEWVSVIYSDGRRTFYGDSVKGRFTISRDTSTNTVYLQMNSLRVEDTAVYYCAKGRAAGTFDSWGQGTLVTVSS
VL: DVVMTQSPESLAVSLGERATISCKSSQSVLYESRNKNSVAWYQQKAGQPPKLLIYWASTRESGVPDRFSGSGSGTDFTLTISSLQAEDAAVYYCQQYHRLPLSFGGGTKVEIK

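The starting antibody came from a phage panning campaign against this peptide. Library AAYL50 holds single substitutions and randomly drawn double and triple substitutions in the CDRs. In AlphaSeq, yeast of one mating type display the scFv and yeast of the other type display the target. The frequency of each diploid, read from paired DNA barcodes, reflects how well the two displayed proteins bind. A regression on co-assayed BCL2-family reference pairs converts the normalised counts of each replicate to an apparent Kd. The assay was run in three technical replicates.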

Changes read parent residue, position, new residue, counted from the first residue of the VL shown. Values are apparent Kd, the geometric mean of the replicates that gave a signal; lower means stronger binding. A pair that was not seen in any replicate is written "not detected"; this usually means weak binding, but a binder can also be missed. For reference, the parent read 4.4 nM as the reference entry and 48 nM as a member of this library. As a blank, each scFv also met three strains without target: over library AAYL50, 18% of these pairings were detected, typically at 15 µM and seldom below 970 nM. The control count says in how many pairings with the empty strains this scFv gave a signal.

changes,Kd,seen in,empty controls
S38A+Y97T+L100I,12 µM,3/3,1/9
L30T+W56A+H98C,1.6 nM,3/3,1/9
V29T+S62H+Y97L,260 nM,3/3,1/9
A40C+L100A+P101E,74 µM,1/3,6/9
S28E+Y31F+L102M,7.8 nM,3/3,0/9
R34Q+T59E+S62M,2.4 nM,3/3,6/9
K24R+S62P+Y97P,3.2 µM,1/3,2/9
S26F+A40W,not detected,0/3,0/9
N35L+T59P,not detected,0/3,0/9
T59P+R60W+E61T,2.3 µM,1/3,1/9
L30Y+W56R+Q96I,not detected,0/3,0/9
Q96F+Y97E+L100A,26 nM,3/3,0/9
K24M+S38R+P101Y,36 µM,1/3,2/9
E32L+S38I+S103E,not detected,0/3,2/9
K24I+P101N,3.7 µM,1/3,2/9
V39L+H98A+L100Q,17 µM,1/3,1/9
Q27M+Y31H+S103N,10 nM,3/3,1/9
V29W+K36V+Q95R,not detected,0/3,0/9
Y31F+S33M+R60D,100 µM,1/3,0/9
S25G+Q27S+K36D,14 nM,3/3,3/9
S28M+L30M+N35C,31 nM,3/3,1/9
L30Y+E32C+A40W,not detected,0/3,2/9
S28D+V39R+R60A,not detected,0/3,1/9
K24Q+E61I+H98T,42 nM,3/3,3/9
K24R+E61L+S62Y,29 nM,3/3,3/9
K24G+V39I+Q95N,68 nM,3/3,4/9
Y31C+E32G+S103A,57 nM,3/3,2/9
N35M+R99T,43 nM,3/3,0/9
L30V+Y31P+V39D,not detected,0/3,3/9
S25H+V29H+S33F,71 nM,3/3,0/9
K36R+A40D+T59F,not detected,0/3,0/9
S26P+S33A,25 nM,3/3,6/9
V29W+Q95Y+L100Q,2.5 nM,3/3,3/9
N35D+A57F+Q95D,89 µM,1/3,3/9
Q27V+K36P+A40L,88 µM,3/3,2/9
N37V+L100R,93 nM,3/3,3/9
S33Y+R34F+R60C,6.1 µM,2/3,3/9
S38H+R60Y+S62M,17 µM,2/3,4/9
S25C+K36D+L100E,1.3 µM,1/3,0/9
K24P+Y97D+H98I,not detected,0/3,1/9
L30H+N35A,18 nM,3/3,0/9
S26Q+W56S+Q96P,650 pM,3/3,1/9
S33D+Q95C+S103V,5.5 µM,3/3,2/9
S28L+S38P+H98C,420 nM,3/3,0/9
S33Y+A40V+T59D,5.4 µM,1/3,2/9
S33T+S62P,7.8 nM,3/3,3/9
K24V+R60W,not detected,0/3,0/9
S26N+V39Q+S58Q,26 µM,2/3,2/9
K24T+A57P+R99L,not detected,0/3,2/9
Y31P+A40C+S58C,9.0 µM,2/3,4/9
R34V+Q96E,5.9 nM,3/3,5/9
N35D+N37E+T59A,340 nM,3/3,1/9
K24I+Q96F+L102Y,not detected,0/3,0/9
K36F+W56M+S103H,1.9 nM,3/3,2/9
K24H+N37T+H98W,360 nM,3/3,2/9
S26Y+Q27F+K36A,18 nM,3/3,0/9
Q96E+H98K+L102A,1.2 µM,1/3,3/9
S28F+S33D+V39T,not detected,0/3,0/9
T59M+E61D,11 nM,3/3,1/9
S26A+N37V+R99Y,not detected,0/3,1/9
S26V+Q96S+L102Q,not detected,0/3,1/9
Q27Y+L100I,64 nM,3/3,3/9
S26F+E61R+L102D,not detected,0/3,1/9
S25K+L30Q,630 nM,1/3,1/9

Repeated from above, the 8 best binders with a signal in all replicates:

{"changes": "S26Q+W56S+Q96P", "Kd": "650 pM", "seen in": "3/3", "empty controls": "1/9"}
{"changes": "L30T+W56A+H98C", "Kd": "1.6 nM", "seen in": "3/3", "empty controls": "1/9"}
{"changes": "K36F+W56M+S103H", "Kd": "1.9 nM", "seen in": "3/3", "empty controls": "2/9"}
{"changes": "R34Q+T59E+S62M", "Kd": "2.4 nM", "seen in": "3/3", "empty controls": "6/9"}
{"changes": "V29W+Q95Y+L100Q", "Kd": "2.5 nM", "seen in": "3/3", "empty controls": "3/9"}
{"changes": "R34V+Q96E", "Kd": "5.9 nM", "seen in": "3/3", "empty controls": "5/9"}
{"changes": "S33T+S62P", "Kd": "7.8 nM", "seen in": "3/3", "empty controls": "3/9"}
{"changes": "S28E+Y31F+L102M", "Kd": "7.8 nM", "seen in": "3/3", "empty controls": "0/9"}

From the AlphaSeq antibody data of Engelhart et al. 2022 (doi:10.1038/s41597-022-01779-4), copy in the FLAb collection.